Experimental data taken from patent US6555113B1, “Modulation of cholesteryl ester transfer protein (CETP) activity” (priority 1995, dated 2003).

The chains behind the UniProt entries cited, without tags or fusion partners. Where a name states a change or a piece, a line headed by the entry shows the natural chain unless it says otherwise.
UniProt P22687: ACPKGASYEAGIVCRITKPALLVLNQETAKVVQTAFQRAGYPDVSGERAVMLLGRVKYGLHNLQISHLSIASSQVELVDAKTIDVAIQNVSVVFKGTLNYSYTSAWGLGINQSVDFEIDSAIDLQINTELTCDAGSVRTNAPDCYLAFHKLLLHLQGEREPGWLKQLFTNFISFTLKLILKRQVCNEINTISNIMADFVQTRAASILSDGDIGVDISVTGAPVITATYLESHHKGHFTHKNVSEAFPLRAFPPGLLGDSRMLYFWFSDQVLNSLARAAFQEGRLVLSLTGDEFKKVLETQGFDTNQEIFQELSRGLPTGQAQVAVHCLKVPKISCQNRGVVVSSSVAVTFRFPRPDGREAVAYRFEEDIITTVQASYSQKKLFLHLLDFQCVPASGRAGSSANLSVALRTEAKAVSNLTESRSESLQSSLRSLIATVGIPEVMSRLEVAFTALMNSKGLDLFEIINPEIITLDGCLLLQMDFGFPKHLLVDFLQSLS
UniProt P11597: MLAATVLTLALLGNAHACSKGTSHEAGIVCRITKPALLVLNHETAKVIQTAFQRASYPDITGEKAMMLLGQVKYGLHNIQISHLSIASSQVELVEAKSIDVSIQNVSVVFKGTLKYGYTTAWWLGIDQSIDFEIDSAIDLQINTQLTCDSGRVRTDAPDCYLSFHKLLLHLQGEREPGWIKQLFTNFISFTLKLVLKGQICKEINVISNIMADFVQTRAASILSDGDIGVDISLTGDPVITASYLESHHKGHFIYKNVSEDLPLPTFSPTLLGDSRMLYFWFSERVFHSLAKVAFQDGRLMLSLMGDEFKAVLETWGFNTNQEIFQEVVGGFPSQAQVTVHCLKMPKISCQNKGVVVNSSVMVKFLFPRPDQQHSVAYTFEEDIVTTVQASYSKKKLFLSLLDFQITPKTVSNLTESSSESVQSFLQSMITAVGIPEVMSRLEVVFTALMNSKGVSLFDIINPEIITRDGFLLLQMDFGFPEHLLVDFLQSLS

What was measured:
[1] = target: peptide derived from the endogenous rabbit CETP sequence (Oryctolagus cuniculus, UniProt P22687); assay: Direct ELISA for autoreactive anti-rabbit (endogenous) CETP antibodies, rabbit atherosclerosis model; conditions: twelve vaccinated rabbits (Groups I and II), three weeks post final boost, before cholesterol diet
recombinant human CETP [2] = target: T1, recombinant human CETP (Homo sapiens, UniProt P11597); assay: Direct ELISA for anti-recombinant human CETP antibodies, rabbit cholesterol-fed atherosclerosis model; conditions: twelve vaccinated rabbits (Groups I and II), 100 μg peptide in RIBI adjuvant Days 0, 28, 49
recombinant human CETP [3] = target: T1, recombinant human CETP; assay: Direct ELISA for titering anti-CETP antibodies in plasma of vaccinated rabbits; conditions: rabbits rb#1-#3, 100 μg peptide in RIBI adjuvant Days 1, 28, 56; plasma Day 70

Sequence: CQYIKANSKFIGITEFGFPEHLLVDFLQSLS
- production of antibodies that reacted with the peptide derived from the endogenous rabbit CETP sequence [1]: six of the twelve vaccinated animals
- production of anti-CETP antibody specific for recombinant human CETP (recombinant human CETP [2]): five of the twelve vaccinated rabbits
- production of anti-CETP antibody specific for recombinant human CETP (recombinant human CETP [3]): all of the rabbits (rb#1-rb#3) of Group I produced anti-CETP antibody
